The list shows a part of the results, in another mix than the full data. Some results for these compounds are left out of this collection, so the calls shown say nothing about other tests. Active and inactive are the calls of the source. Rule as the data show it: active = activation above about 7.5%; inactive = the rest.
system: Methionine sulfoxide reductase A (Bos taurus); assay: activation of methionine sulfoxide reductase A – biochemical, absorbance, bovine, HTS, primary screen (AID 602163); details: purified bovine MsrA, absorbance read-out; at 10.6 µM; stronger effect = higher value;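 also: 0% = vehicle and 100% = reference activator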

Row | SMILES | activation
1 | O=C(NCC1(N2CCCCC2)CCCCC1)c1cc([N+](=O)[O-])ccc1Cl | inactive: -2.86%
2 | CN1[C@@H]2CC[C@H]1CC(OC(=O)C(O)(c1ccccc1)c1ccccc1)C2 (stereo partly specified) | inactive: -1.82%
3 | COc1cc(SC)ccc1C(=O)NCC1(N(C)C)CCCCC1 | inactive: -5.33%
4 | CCN(CC)CC(C)C(C)OC(=O)C(O)(c1ccccc1)c1ccccc1 (stereo unspecified) | inactive: -3.15%
5 | CC(C)N1C(=O)CC2(CCN(CCOC(=O)C(O)(c3ccccc3)c3ccccc3)CC2)C1=O | inactive: -2.19%
6 | Cc1ccc(C(=O)NCC2(N3CCCCC3)CCCCC2)cc1 | inactive: 1.67%
7 | CN(C)C1CCCC1OC(=O)C(O)(c1ccccc1)c1ccccc1 (stereo unspecified) | inactive: -2.36%
8 | CN(C)c1ccc(C(=O)NCC2(N(C)C)CCCCC2)cc1 | inactive: -2.75%
9 | Cc1ccccc1C(=O)NCC1(N2CCCCC2)CCCCC1 | inactive: -6.11%
10 | O=C(NCC1(N2CCCCC2)CCCCC1)c1cc(F)c(F)cc1Cl | inactive: -2.27%
11 | C=CCN1CCN(CCOC(=O)C(O)(c2ccccc2)c2ccccc2)CC1 | inactive: -2.55%
12 | COc1ccc(C(=O)NCC2(N(C)C)CCCCC2)cc1 | inactive: -0.91%
13 | O=C(NCC1(N2CCCCC2)CCCCC1)c1cccc(Br)c1 | inactive: -2.84%
14 | Cc1cc(C(=O)NCC2(N3CCCCC3)CCCCC2)ccc1[N+](=O)[O-] | inactive: -1.74%
15 | CCN1CCCC(OC(=O)C2(O)c3ccccc3C=Cc3ccccc32)C1 (stereo unspecified) | inactive: 0.27%
16 | CN(C)C1(CNC(=O)c2ccc(Br)cc2)CCCCC1 | inactive: -3.53%
17 | COc1cc(C(=O)NCC2(N(C)C)CCCCC2)c([N+](=O)[O-])cc1OC | inactive: 2.26%
18 | COc1ccc(Cl)cc1C(=O)NCC1(N(C)C)CCCCC1 | inactive: -2.03%
19 | COc1cccc(C(=O)NCC2(N3CCCCC3)CCCCC2)c1 | inactive: -2.9%
20 | O=C(NCC1(N2CCCCC2)CCCCC1)c1cccc(Cl)c1 | inactive: -5.1%
21 | O=C(OC1CN2CCC1CC2)C(CO)(c1ccccc1)c1ccccc1 (stereo unspecified) | inactive: -2.3%
22 | C=C(C)C#CC(O)(C(=O)OC1CCN(C)CC1)c1ccccc1 (stereo unspecified) | inactive: -10.1%
23 | COc1ccc(Br)c(C(=O)NCC2(N3CCCCC3)CCCCC2)c1 | inactive: -2%
24 | O=C(OCCN1CCCC1)C(O)(c1ccccc1)c1ccccc1 | inactive: -1.56%
25 | CC(C)Oc1ccc(C(=O)NCC2(N(C)C)CCCCC2)cc1 | inactive: -4.28%
26 | CN(C)c1cccc(C(=O)NCC2(N(C)C)CCCCC2)c1 | inactive: -4.36%
